Source: patent US20220380459A1

By UniProt entry, the sequences of proteins in these tests, tags left out. Residues count along the entry.
UniProt P20138, 18-259 S128N: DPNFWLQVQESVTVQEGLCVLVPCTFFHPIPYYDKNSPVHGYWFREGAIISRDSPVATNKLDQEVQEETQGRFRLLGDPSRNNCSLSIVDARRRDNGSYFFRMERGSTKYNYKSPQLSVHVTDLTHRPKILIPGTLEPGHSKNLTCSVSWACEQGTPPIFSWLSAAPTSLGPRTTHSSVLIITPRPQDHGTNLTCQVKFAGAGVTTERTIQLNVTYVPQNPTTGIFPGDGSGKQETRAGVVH

Biological target: human CD33 S128N (human) (UniProt P20138)
Test: SPR, Fab captured, 37C

B1: ADI-11802 Fab (Fab, V domains shown)
VH: QVQLVQSGAEVKKPGASVKVSCKASGYTFSGYYMHWVRQAPGQGLEWMGMINPYGGSTRYAQKFQGRVTMTRDTSTSTVYMELSSLRSEDTAVYYCAREAADGFVGERYFDLWGRGTLVTVSS
VL: DIVMTQSPLSLPVTPGEPASISCRSSQSLLYSNGYNYLDWYLQKPGQSPQLLIYLGSNRASGVPDRFSGSGSGTDFTLKISRVEAEDVGVYYCMQDVALPITFGGGTKVEIK
Question: What does the source list for B1?
Answer: Kd: 0.809 nM; koff: 0.00059 s⁻¹; kon: 662000 M⁻¹ s⁻¹
